Amino acid sequences for entries named in this document (tags omitted).
UniProt P30559, whole entry: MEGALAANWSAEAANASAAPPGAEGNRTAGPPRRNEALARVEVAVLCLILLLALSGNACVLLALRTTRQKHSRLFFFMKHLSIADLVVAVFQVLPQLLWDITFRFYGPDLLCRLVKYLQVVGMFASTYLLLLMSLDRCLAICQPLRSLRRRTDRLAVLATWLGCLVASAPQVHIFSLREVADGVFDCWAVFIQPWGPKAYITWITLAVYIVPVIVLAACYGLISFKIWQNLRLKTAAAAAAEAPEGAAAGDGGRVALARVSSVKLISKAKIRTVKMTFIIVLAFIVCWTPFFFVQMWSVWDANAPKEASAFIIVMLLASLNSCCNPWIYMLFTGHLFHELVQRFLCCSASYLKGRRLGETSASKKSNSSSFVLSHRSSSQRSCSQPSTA

The list shows a part of the results, in another mix than the full data. Activity calls are given as the source filed them.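 How the source made its calls: active means activation above that plate's cutoff, the mean activation of tested compounds plus 3 SD (cut at about 6.6% in these data, passing the limit was not always enough); inactive means the rest.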
These molecules were tested against Oxytocin receptor (Homo sapiens) (UniProt P30559) (assay: human OXTR potentiators, primary screen, fluorescence, CHO-OTR cells, Fluo-8 calcium (AID 2445;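 further: 100% uses oxytocin at 75 nM as the full agonist control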)). Conditions: Fluo-8 calcium fluorescence, potentiator mode, at 3 µM, active compounds read high, 0% = oxytocin EC15, 100% = EC100.
In the case of `O=C(NCC1(N2CCCCC2)CCCCC1)c1cccc([N+](=O)[O-])c1`, the activation is reported as inactive: -4.71%. With `CCN1CCC(Nc2ccc(Cl)cc2)CC1` the activation was inactive: -6.82%. For `N#CC1(Nc2ccccc2)CCN(CCc2ccccc2)CC1`, the activation was inactive: -13.7%. In the case of `O=C(NCC1(N2CCCCC2)CCCCC1)c1ccc(OC(F)F)cc1`, the activation is reported as inactive: -6.12%. In the case of `COc1ccc(NC2CCN(C(=O)OC(C)(C)C)CC2)cc1`, the activation is reported as inactive: -2.23%. In the case of `CN1CCN(CCOC(=O)C(O)(c2ccccc2)c2ccccc2)CC1`, the activation is reported as inactive: -5.79%. In the case of `O=C(NCC1(N2CCOCC2)CCCCC1)c1cc(=O)[nH]c2ccccc12`, the activation is reported as inactive: -17.2%. For `COc1cc(C(=O)NCC2(N3CCCCC3)CCCCC2)ccc1OC(F)F`, the activation was inactive: -5.45%. `O=C(NCC1(N2CCCCC2)CCCCC1)c1cccc(C(F)(F)F)c1` was tested, and the activation was inactive: 0.89%. In the case of `COc1cc(OC)c(C(=O)NCC2(N(C)C)CCCCC2)cc1OC`, the activation is reported as inactive: -4.88%. In the case of `O=C(NCC1(N2CCOCC2)CCCCC1)c1cc(F)c(F)cc1Cl`, the activation is reported as inactive: -2.48%. For `COc1ccc(CN(CCCl)CCCl)cc1Cl`, the activation was inactive: -4.99%. For `CN(C)c1cccc(C(=O)NCC2(N3CCCCC3)CCCCC2)c1`, the activation was inactive: -1.1%. `CC(C)c1ccc(NC2CCN(C(=O)OC(C)(C)C)CC2)cc1` was tested, and the activation was inactive: -3.28%. In the case of `CN1CCC(Nc2cccc(F)c2)CC1`, the activation is reported as inactive: -2.38%. `O=C(NCC1(N2CCCCC2)CCCCC1)c1cncc(Br)c1` was tested, and the activation was inactive: -1.65%. In the case of `CSc1ccccc1C(=O)NCC1(N2CCCCC2)CCCCC1`, the activation is reported as inactive: -3.35%. With `O=C(NCC1(N2CCCCC2)CCCCC1)c1ccc(=O)[nH]c1` the activation was inactive: 0.91%. `O=C(NCC1(N2CCCCC2)CCCCC1)c1cccs1` was tested, and the activation was inactive: 1.48%. With `COc1ccc(C(=O)NCC2(N3CCCCC3)CCCCC2)cc1` the activation was inactive: -1.07%. For `COc1ccc(C(=O)NCC2(N3CCCCC3)CCCCC2)c(OC)c1OC`, the activation was inactive: -1.77%. For `CC(C)(C)OC(=O)N1CCC(N(C(=O)c2ccccc2)c2ccc(F)cc2)CC1`, the activation was inactive: -13.3%. In the case of `CCOC(=O)N1CCC(Nc2ccc(OC)cc2)CC1`, the activation is reported as inactive: 0.57%. In the case of `O=C(NCC1(N2CCCCC2)CCCCC1)c1ccc(Cl)s1`, the activation is reported as inactive: 1.38%. With `N#CC1(Nc2ccccc2)CCN(Cc2ccccc2)CC1` the activation was inactive: 4.92%. In the case of `O=C(OC1CN2CCC1CC2)C1c2ccccc2Oc2ccccc21` (stereo not drawn), the activation is reported as inactive: -2.91%. For `COc1ccc(Cl)cc1C(=O)NCC1(N2CCOCC2)CCCCC1`, the activation was inactive: -2.97%. `O=C(NCC1(N2CCOCC2)CCCCC1)c1cc2ccccc2o1` was tested, and the activation was inactive: -9.08%. In the case of `O=C(NCC1(N2CCCCC2)CCCCC1)c1ccc(Cl)nc1`, the activation is reported as inactive: -1.93%. `Cc1cc(C)cc(N(C(=O)c2ccccc2)C2CCN(C(=O)OC(C)(C)C)CC2)c1` was tested, and the activation was inactive: -19.2%. For `O=C(NCC1(N2CCCCC2)CCCCC1)c1ccc(F)cc1`, the activation was inactive: -2.18%. With `COc1ccc(NC2CCN(CCc3ccccc3)CC2)c(OC)c1` the activation was inactive: -6.9%. In the case of `CCOc1ccc(C)cc1CN(CCCl)CCCl`, the activation is reported as inactive: -11.4%. For `CCOC(=O)N1CCC(Nc2cccc(C)c2)CC1`, the activation was inactive: 1.22%. For `Cc1ccc(OCC(C)C)c(CN(CCCl)CCCl)c1`, the activation was inactive: -5.5%. For `Cc1ccc(C(=O)NCC2(N3CCCCC3)CCCCC2)o1`, the activation was inactive: -4.76%. For `Fc1ccccc1NC1CCN(Cc2ccccc2)CC1`, the activation was inactive: -1.22%. For `COc1cc(OC)cc(C(=O)NCC2(N3CCCCC3)CCCCC2)c1`, the activation was inactive: -1.96%. In the case of `O=C(NCC1(N2CCCCC2)CCCCC1)c1ccco1`, the activation is reported as inactive: 2.54%. With `CN(C)c1ccc(C(=O)NCC2(N3CCCCC3)CCCCC2)cc1` the activation was inactive: 5.63%. `CCN1CCC(Nc2cccc(F)c2)CC1` was tested, and the activation was inactive: -7.37%. `CCCOc1ccc(C(=O)NCC2(N(C)C)CCCCC2)cc1` was tested, and the activation was inactive: -2.85%. With `CC(C)(C)OC(=O)N1CCC(Nc2ccccc2)CC1` the activation was inactive: 8.07%. With `O=C(O)C1(Nc2ccccc2)CCN(Cc2ccccc2)CC1` the activation was inactive: -16%. In the case of `CCOc1ncccc1C(=O)NCC1(N2CCOCC2)CCCCC1`, the activation is reported as inactive: -6.12%. For `CN1CCC(Nc2ccc(F)c(Cl)c2)CC1`, the activation was inactive: -12.4%. For `CCCOc1ccc(C)cc1CN(CCCl)CCCl`, the activation was inactive: -3.81%. With `CN1CCC(Nc2ccc(Cl)cc2)CC1` the activation was inactive: -5.58%. With `CCC(CO)(C(=O)OC1CN2CCC1CC2)c1ccccc1` (stereo not drawn) the activation was inactive: -0.93%. With `COc1cccc(C(=O)N(c2cc(C)cc(C)c2)C2CCN(C(=O)OC(C)(C)C)CC2)c1` the activation was inactive: -18.8%. `COc1cc(OC)cc(C(=O)NCC2(N3CCOCC3)CCCCC2)c1` was tested, and the activation was inactive: -5.75%. For `COc1ccc(C(=O)NCC2(N3CCOCC3)CCCCC2)cc1OC`, the activation was inactive: -17.1%. With `O=C(NCC1(N2CCOCC2)CCCCC1)c1cc(Br)ccc1Cl` the activation was inactive: -2.33%. In the case of `COc1cc(C(=O)NCC2(N3CCOCC3)CCCCC2)cc(OC)c1C`, the activation is reported as inactive: -2%. With `CCc1cc(C(=O)NCC2(N3CCCCC3)CCCCC2)sc1C` the activation was inactive: -7.13%. For `O=C(OC1CN2CCC1CC2)C1c2ccccc2C=Cc2ccccc21` (stereo not drawn), the activation was inactive: 0.12%. `N/C(=N\O)c1c(N)no[n+]1[O-]` was tested, and the activation was inactive: -12.1%. In the case of `CCOC(=O)N1CCC(Nc2ccc(C)cc2)CC1`, the activation is reported as inactive: -2.52%. For `CC(C)(C)OC(=O)N1CCC(N(C(=O)c2ccccc2)c2ccc(Cl)cc2)CC1`, the activation was inactive: -19.3%. In the case of `N#Cc1ccc(C(=O)NCC2(N3CCCCC3)CCCCC2)cc1`, the activation is reported as inactive: -6.65%. For `c1ccc(CN2CCC(Nc3ccccc3)CC2)cc1`, the activation was inactive: -7.48%. In the case of `CCCN1CCC(Nc2cc(OC)cc(OC)c2)CC1`, the activation is reported as inactive: -10.2%. For `CN(C)C1(CNC(=O)c2cccc(C#N)c2)CCCCC1`, the activation was inactive: -2.09%.

From PubChem BioAssay AID2445 (The Scripps Research Institute Molecular Screening Center, 2010)
